In BindingDB's records for 19027295:
pEC50, pKi: −log10 of the molar value.

By UniProt entry, the sequences of proteins in these tests, tags left out. Residues count along the entry.
UniProt P36544, 23-502 limits assumed: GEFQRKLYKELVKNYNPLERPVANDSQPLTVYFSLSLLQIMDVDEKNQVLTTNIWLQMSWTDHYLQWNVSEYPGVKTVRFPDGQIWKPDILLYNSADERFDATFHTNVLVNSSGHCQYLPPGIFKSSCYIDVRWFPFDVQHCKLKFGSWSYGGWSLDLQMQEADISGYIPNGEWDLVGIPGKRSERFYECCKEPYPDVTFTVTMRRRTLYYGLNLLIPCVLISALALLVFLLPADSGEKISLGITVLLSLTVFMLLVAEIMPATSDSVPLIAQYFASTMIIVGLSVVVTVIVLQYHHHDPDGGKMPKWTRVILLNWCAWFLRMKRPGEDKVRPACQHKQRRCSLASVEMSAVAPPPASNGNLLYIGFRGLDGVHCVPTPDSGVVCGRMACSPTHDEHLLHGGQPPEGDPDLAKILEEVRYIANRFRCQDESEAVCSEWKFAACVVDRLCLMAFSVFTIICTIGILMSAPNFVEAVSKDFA
UniProt P32297, 32-505 limits assumed: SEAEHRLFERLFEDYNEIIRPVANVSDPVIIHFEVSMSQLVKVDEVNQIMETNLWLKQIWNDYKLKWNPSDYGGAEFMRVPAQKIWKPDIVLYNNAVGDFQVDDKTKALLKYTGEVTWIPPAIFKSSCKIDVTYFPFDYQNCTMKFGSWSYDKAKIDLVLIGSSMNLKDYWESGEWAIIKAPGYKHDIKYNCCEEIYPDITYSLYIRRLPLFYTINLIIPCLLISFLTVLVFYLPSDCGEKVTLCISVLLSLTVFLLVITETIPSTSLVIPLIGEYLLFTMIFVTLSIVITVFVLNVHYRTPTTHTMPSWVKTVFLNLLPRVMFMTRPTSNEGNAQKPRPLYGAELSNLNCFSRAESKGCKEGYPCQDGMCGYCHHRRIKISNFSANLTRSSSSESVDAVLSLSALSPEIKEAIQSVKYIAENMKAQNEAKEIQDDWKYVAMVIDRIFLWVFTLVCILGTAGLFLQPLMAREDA

What was measured:
[1] = biological target: Neuronal acetylcholine receptor subunit alpha-7 (Homo sapiens, UniProt P36544)
[2] = biological target: Neuronal acetylcholine receptor subunit alpha-3 (Homo sapiens, UniProt P32297)

## CN(C)C(=O)OCCC(C1CC1)N(C)C (configuration not stated)
[1]
  pKi: < 3.00
[2]
  pEC50: < 3.00
